From BindingDB's records for PubMed 9694962 (Memorial Sloan-Kettering Cancer Center, 1998)

Sequences of proteins named here, by UniProt entry; tags and fusion partners are left off.
UniProt P42866, whole entry: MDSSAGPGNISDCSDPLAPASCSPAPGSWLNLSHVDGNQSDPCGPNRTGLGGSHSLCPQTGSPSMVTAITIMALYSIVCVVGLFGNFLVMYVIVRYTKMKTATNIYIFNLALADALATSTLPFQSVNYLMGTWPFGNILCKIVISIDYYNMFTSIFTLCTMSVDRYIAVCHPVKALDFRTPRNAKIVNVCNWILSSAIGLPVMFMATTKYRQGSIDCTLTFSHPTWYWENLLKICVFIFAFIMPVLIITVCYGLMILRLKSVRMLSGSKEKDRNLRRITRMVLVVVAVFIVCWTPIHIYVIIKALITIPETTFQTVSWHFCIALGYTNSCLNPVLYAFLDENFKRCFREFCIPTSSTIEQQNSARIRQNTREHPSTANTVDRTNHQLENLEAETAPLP

Target: Mu-type opioid receptor (Mus musculus, UniProt P42866)

CSCC[C@H](NC(=O)[C@H](Cc1ccccc1)NC(=O)CNC(=O)CNC(=O)[C@@H](N)Cc1ccc(O)cc1)C(=O)O [2-[(S)-2-(2-{2-[(S)-2-Amino-3-(4-hydroxy-phenyl)-propionylamino]-acetylamino}-acetylamino)-1-oxo-3-phenyl-propylamino]-4-methylsulfanyl-butyric acid]
Ki: 1.28 nM and 1.21 nM

Several values for one entry are separate records, joined by “and”; a condition that tells them apart may be missing. Identical values can stand only once.
